Each structure is given as a SMILES string. pIC50: −log10 of the molar value. Read-outs that look alike come from different tables or passages of the source.

Sequences of proteins named here, by UniProt entry; tags and fusion partners are left off.
UniProt O43613, whole entry: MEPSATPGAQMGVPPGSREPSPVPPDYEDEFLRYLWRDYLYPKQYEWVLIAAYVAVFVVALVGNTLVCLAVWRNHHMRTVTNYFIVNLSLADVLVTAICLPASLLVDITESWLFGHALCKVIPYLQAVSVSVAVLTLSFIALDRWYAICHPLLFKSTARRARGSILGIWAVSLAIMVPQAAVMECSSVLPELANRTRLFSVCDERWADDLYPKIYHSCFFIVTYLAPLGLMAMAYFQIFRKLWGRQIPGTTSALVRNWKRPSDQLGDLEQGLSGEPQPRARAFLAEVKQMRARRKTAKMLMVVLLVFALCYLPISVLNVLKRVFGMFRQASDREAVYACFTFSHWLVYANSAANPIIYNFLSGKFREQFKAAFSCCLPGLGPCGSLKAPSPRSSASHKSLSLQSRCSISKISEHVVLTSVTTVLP
UniProt O43614, whole entry: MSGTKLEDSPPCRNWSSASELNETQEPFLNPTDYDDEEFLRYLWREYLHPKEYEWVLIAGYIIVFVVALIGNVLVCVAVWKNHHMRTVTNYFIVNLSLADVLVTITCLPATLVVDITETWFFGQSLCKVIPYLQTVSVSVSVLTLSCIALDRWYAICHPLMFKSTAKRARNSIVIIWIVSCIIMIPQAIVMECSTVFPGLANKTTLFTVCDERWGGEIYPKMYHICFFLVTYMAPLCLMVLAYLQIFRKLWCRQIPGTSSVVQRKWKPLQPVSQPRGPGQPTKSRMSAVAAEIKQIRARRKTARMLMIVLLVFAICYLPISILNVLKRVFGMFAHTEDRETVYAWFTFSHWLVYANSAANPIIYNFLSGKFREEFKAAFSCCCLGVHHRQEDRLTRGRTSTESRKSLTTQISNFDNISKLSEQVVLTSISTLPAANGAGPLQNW

The target of one assay is T1, OX1 (Homo sapiens, UniProt O43613).
T1 construct: expressed in transfected cells; host or cells: CHO (CHO-OX1, kept under selection antibiotic)
The assay is described as follows: Orexin receptor cell-based functional assay, [Ca2+]i by FLIPR, CHO-OX1 cells.

The next assay deals with T2, OX2 (Homo sapiens, UniProt O43614).
T2 construct: expressed in transfected cells; host or cells: CHO (CHO-OX2, kept under selection antibiotic)
Description: Orexin receptor cell-based functional assay, [Ca2+]i by FLIPR, CHO-OX2 cells. The following applies: Table 6; racemate vs enantiomers; read-out: OX2 IC50.

As for `Cc1ccc(-c2cnn(C)c2)c(C(=O)N2CCC[C@@H](C)[C@H]2CNc2ccc(C(F)(F)F)cn2)c1` [Example A1, ((2S,3R)-3-Methyl-2-(((5-(trifluoromethyl)pyridin-2-yl)amino)methyl)piperidin-1-yl)(5-methyl-2-(1-methyl-1H-pyrazol-4-yl)phenyl)methanone], the pIC50 was 8.70 at OX1 (CHO-OX1 cells, [Ca2+]i by FLIPR, antagonist dose-range 0.1 nM-10 μM, EC90 of OXA, read-out: OX1); 8.70 on OX1 (Table 6, racemate vs enantiomers, read-out: OX1 IC50); 5.40 at OX2.
